Target: EGFR (Homo sapiens, UniProt P00533, DEL746-750)
Assay: Global label-free quantitative proteomics in HCC-827 cells
Type: cell-based
Conditions: 100 nM for 16 h

**Q.** `COc1cc2ncnc(Nc3ccc(F)c(Cl)c3)c2cc1OCCCN1CCN(C(=O)CCCCCCCCCC(=O)N[C@H](C(=O)N2C[C@H](O)C[C@H]2C(=O)NCc2ccc(-c3scnc3C)cc2)C(C)(C)C)CC1` [Compound 6, (2S,4R)-1-((S)-2-(11-(4-(3-((4-((3-Chloro-4-fluorophenyl)amino)-7-methoxyquinazolin-6-yl)oxy)propyl)piperazin-1-yl)-11-oxounde-canamido)-3,3-dimethylbutanoyl)-4-hydroxy-N-(4-(4-methylthiazol-5-yl)benzyl)pyrrolidine-2-carboxamide] was tested. Which “log 2 ratio of LFQ intensity value for EGFR, treatment vs DMSO control” value (HCC-827 cells starved 8 h) did it give?
**A.** about –2

**Q.** What about the “selectivity across the proteome” value (HCC-827 cells, 4794 / 4446 proteins identified) of the same molecule?
**A.** highly selective for EGFR

— publication PMC7318554 (Journal of medicinal chemistry, 2020)
